# Test results from patent publication US10059712B2, “N-benzyl tryptanthrin derivative, and preparation method and application thereof” (priority 2013, dated 2018).
# Assays:
# [1] = system: Lewis lung carcinoma; assay: LLC Lewis tumor model, prophylactic administration; settings: prophylactic administration one week, continued after inoculation
# [2] = system: Lewis lung carcinoma; settings: 200 mg/kg via gavage, two weeks, post-inoculation
smiles,measurement,setting,value
CN1CCN(Cc2ccc3nc4n(c(=O)c3c2)-c2ccc(F)cc2C4=O)CC1 [Embodiment Example 4],Lewis lung carcinoma tumor growth in vivo,[1],significantly inhibited
same,in vivo Lewis lung carcinoma tumor growth compared to the control group,[2],significant inhibition
